Experimental data reported in patent publication US20260151375A1, “CDK2 INHIBITORS AND METHODS OF USING THE SAME” (Cedilla Therapeutics, Inc., priority 2022, published 2026).

Experiments:
Kuramochi cells = assay: IncuCyte Kuramochi Assay (cell proliferation); conditions: read-out: IncuCyte - Kuramochi RB-WT: IC50; Kuramochi cells labeled with mApple-H2B, 72 hours, cell count
Experimental: IncuCyte® assay was used to measure the effect of disclosed compounds on cell proliferation. Fluorescent microscopy images of cells were taken immediately after compound treatment and 72 hours later. Image analysis software was used to obtain cell counts as a function of compound concentration. Kuramochi cells labeled with mApple-H2B were seeded on 384-well assay-ready plates. Plates were placed in an IncuCyte® (Sartorius) and scanned at 0 and 72 hours. IncuCyte® software was used to count the number of fluorescent nuclei in each well. The fold change in cell count from 0 to 72 hours in wells treated with increasing compounds concentrations (10 pts, ½ log dilution, 20 μM top concentration) was normalized to DMSO control wells. The normalized cell counts were fit with dose response curves and a […] was calculated.

CDK2/Cyclin E1 [1] = target: T1, CDK2/Cyclin E1 (Homo sapiens, UniProt P24941); assay: ADPGLO (CDK2/E1-37 C), ADP-Glo Luminescent Kinase Assay; conditions: read-out: ADPGLO (CDK2/E1-37C): IC50; 0.18 nM CDK2/Cyclin E1, 100 μM ATP, Histone H1, 37° C.
Experimental: Inhibition of CDK2/Cyclin E1 activity by the presence of small molecules was evaluated using ADP-Glo Luminescent Kinase Assay (Promega). Activated CDK2/Cyclin E1 was incubated with its substrate Histone H1 (SignalChem H10-54N) in the kinase reaction buffer (100 μM ATP, 50 mM HEPES pH 7.5, 10 mM MgCl2, 1 mM EDTA, 2 mM DTT, 0.01% Brij35, 0.5 mg/mL BSA). Luminescence was recorded with an Envision plate reader (PerkinElmer).
Dose titrations of inhibitors in 100% DMSO were combined with 0.36 nM CDK2/Cyclin E1 in reaction buffer. The mixtures were incubated for 60 minutes at 37° C. before the addition of ATP and Histone H1 substrate to initiate the kinase reaction. The final conditions were 0.18 nM CDK2/Cyclin E1, 100 μM ATP, and 1.5 μM Histone H1. The reactions were incubated at 37° C. for 90 minutes before being stopped with the addition of ADP-Glo reagent. This mixture was incubated at room temperature for 60 minutes before Kinase Detection Solution is added to generate luminescence. The stopped reactions were analyzed on an Envision plate reader. The conversion ratios were normalized to yield % activity, plotted against compound concentration, and fit to a four-parameter equation to determine the IC50 for each compound.

CDK2/Cyclin E1 [2] = target: T1, CDK2/Cyclin E1; assay: Caliper Assay (LabChip EZ Reader mobility shift assay), inhibition of CDK2/Cyclin E1 activity; conditions: read-out: Caliper Assay (CDK2/CCNE1): IC50; 2.5 nM CDK2/Cyclin E1(14-475), 100 μM ATP, 30 min preincubation
Experimental: Inhibition of CDK2/Cyclin E1 activity in the presence of compounds of the present disclosure was evaluated using a Caliper LabChip® EZ Reader mobility shift assay. In the assay, activated CDK2/Cyclin E1 catalyzes the phosphorylation of a fluorescently tagged peptide 5-FAM-QSPKKG-CONH2 (PerkinElmer, FL Peptide 18) which induces a difference in capillary electrophoresis mobility. The peptide substrate and product were measured, and the conversion ratio was used to determine the inhibition (as % activity and IC50 values) of CDK2/Cyclin E1. Reactions contained 50 mM HEPES pH 7.5, 10 mM MgCl2, 1 mM EDTA, 2 mM DTT, 0.01% Brij35, 0.5 mg/mL BSA, 0.1% DMSO, 2.5 nM CDK2/Cyclin E1(14-475), 100 μM ATP, and 1.5 μM fluorescent peptide substrate.
Dose titrations of inhibitors in 100% DMSO were combined with 3.25 nM CDK2/Cyclin E1(14-475) and 130 μM of ATP in reaction buffer. The mixtures were incubated for 30 minutes before the addition of fluorescent peptide substrate to initiate the kinase reaction. The final conditions were 2.5 nM CDK2/Cyclin E1(14-475), 100 μM ATP, and 1.5 μM fluorescent peptide. The reactions were stopped after 100 minutes with the addition of EDTA (6 mM final EDTA concentration). The stopped reactions were analyzed on a Caliper LabChip© EZ Reader II. The conversion ratios were normalized to yield % activity, plotted against compound concentration, and fit to a four-parameter equation to determine the IC50 for each compound.

| SMILES | IC50 (Kuramochi cells) | IC50 (CDK2/Cyclin E1 [1]) | IC50 (CDK2/Cyclin E1 [2]) |
| --- | --- | --- | --- |
| CC1(C)C[C@@H]1C(=O)N1CC2(CN(C(=O)c3cnn(Cc4ccc(C(=O)O)cc4)c3)CC2c2noc(Cn3ccc(C4CCCC4)n3)n2)C1 (some centres unmarked) | > 10 µM | > 10 µM | 0.1 to 1 µM |
| Cc1ncc(C(=O)N2CC(c3noc(C(C)n4ccc(C5CCOCC5)n4)n3)C3(C2)CN(C(=O)C2(C(F)(F)F)CC2)C3)nc1O (centres unmarked) | > 10 µM | > 10 µM |  |
| Cc1cc(C(=O)O)n(C(C)c2nc(C3CN(C(=O)c4cncs4)CC34CN(C(=O)[C@H]3CC3(C)C)C4)no2)n1 (some centres unmarked) | > 10 µM |  | 1 to 10 µM |
| O=C(c1cnc(O)cn1)N1CC(c2nnc(C(C(=O)N3CCC(c4nccs4)CC3)c3ccc(C4CCCCC4)cc3)o2)C2(C1)CN(C(=O)C1(C(F)(F)F)CC1)C2 (centres unmarked) | 5 to 10 µM | < 0.5 µM |  |
| CC1(C)C[C@@H]1C(=O)N1CC2(CN(C(=O)c3cncs3)CC2c2ncc(Cc3ccc(Cl)c(C(F)(F)F)c3)o2)C1 (some centres unmarked) | > 10 µM |  | 0.1 to 1 µM |
